{"source": "patent US20110039815A1", "about": "“MACROCYCLIC METAL COMPLEXES FOR THEIR USE AS ANTICANCER AGENTS” (priority 2005, published 2011)"}
{"substance": "^Me3TacnRhCl3 [formula 8]", "values": [{"measurement": "solubility in 0.7% saline solution", "setting": "0.7% saline solution", "result": "limited solubility"}, {"measurement": "solubility in physiological saline solution", "setting": "physiological saline solution", "result": "up to 2.1×10^−2 molar"}]}
